The target in this assay is Protease (Human immunodeficiency virus 1, UniProt Q9YQ12). In words: Inhibition of HIV1 recombinant protease expressed in Escherichia coli.

The structures appear in SMILES notation.

The Ki is a measure of affinity in units of concentration, obtained from inhibition or displacement. On to `Nc1ccc(S(=O)(=O)N(Cc2ccccc2)[C@H]2CNC[C@@H]2N(Cc2ccccc2)S(=O)(=O)c2ccc(N)cc2)cc1`, for which the Ki came to 270 nM.

Consider `O=S(=O)(c1ccccc1)N(Cc1ccc(I)cc1)[C@H]1CNC[C@@H]1N(Cc1ccc(I)cc1)S(=O)(=O)c1ccccc1`, for which the Ki worked out at 390 nM.

The values above are taken from ChEMBL document CHEMBL1144712, “Structure-guided design of C2-symmetric HIV-1 protease inhibitors based on a pyrrolidine scaffold” (J Med Chem, 2008).
